Assay results from ChEMBL document CHEMBL1140130, “Identification of 4-(2-(4-amino-1,2,5-oxadiazol-3-yl)-1-ethyl-7-{[(3S)-3-piperidinylmethyl]oxy}-1H-imidazo[4,5-c]pyridin-4-yl)-2-methyl-3-butyn-2-ol (GSK690693), a novel inhibitor of AKT kinase” (J Med Chem, 2008).

Sequences of proteins named here, by UniProt entry; tags and fusion partners are left off. A change or cut given only in a name is not applied to a line headed by its entry.
UniProt P31749: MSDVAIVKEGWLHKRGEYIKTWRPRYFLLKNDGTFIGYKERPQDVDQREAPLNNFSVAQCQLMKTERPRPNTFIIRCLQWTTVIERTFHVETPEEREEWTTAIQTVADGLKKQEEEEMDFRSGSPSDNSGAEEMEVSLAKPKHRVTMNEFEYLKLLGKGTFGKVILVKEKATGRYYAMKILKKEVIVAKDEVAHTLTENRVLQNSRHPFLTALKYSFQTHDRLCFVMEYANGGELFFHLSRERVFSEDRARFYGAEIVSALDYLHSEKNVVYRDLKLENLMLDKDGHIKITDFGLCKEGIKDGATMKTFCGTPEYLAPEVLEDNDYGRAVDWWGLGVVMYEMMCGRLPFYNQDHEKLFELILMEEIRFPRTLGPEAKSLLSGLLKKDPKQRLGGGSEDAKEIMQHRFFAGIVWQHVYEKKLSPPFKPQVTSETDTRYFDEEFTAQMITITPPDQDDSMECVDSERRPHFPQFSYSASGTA
UniProt Q9Y243: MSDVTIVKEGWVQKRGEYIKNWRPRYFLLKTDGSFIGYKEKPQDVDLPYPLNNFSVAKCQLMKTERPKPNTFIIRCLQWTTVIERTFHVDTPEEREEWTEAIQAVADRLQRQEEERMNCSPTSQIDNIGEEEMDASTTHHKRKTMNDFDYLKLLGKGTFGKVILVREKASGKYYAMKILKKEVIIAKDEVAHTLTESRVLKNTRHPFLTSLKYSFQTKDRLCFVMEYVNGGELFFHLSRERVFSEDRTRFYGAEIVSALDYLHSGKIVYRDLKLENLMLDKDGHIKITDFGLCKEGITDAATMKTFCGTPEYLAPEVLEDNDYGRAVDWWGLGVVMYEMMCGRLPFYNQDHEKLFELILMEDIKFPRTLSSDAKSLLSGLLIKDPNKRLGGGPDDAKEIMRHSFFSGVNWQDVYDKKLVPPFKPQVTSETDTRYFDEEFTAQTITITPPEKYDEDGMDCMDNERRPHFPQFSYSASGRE

Assays:
[1] = target: T1, RAC-alpha serine/threonine-protein kinase (Homo sapiens, UniProt P31749)
[2] = target: T1, RAC-alpha serine/threonine-protein kinase; remark: listed apart in the source
[3] = target: RAC-gamma serine/threonine-protein kinase (Homo sapiens, UniProt Q9Y243)

Row | Compound | IC50 [1] [nM] | IC50 [2] [nM] | IC50 [3] [nM]
1 | CCn1c(-c2nonc2N)nc2c(C#CC(C)(C)O)ncc(OCCCCN)c21 | 1510 | 9 | 
2 | CCn1c(-c2nonc2N)nc2cncc(C(=O)NC3CCNCC3)c21 |  |  | 2290
